The source of these data is PubChem BioAssay AID2776 (Johns Hopkins Ion Channel Center, 2010).

The chains behind the UniProt entries cited, without tags or fusion partners. Where a name states a change or a piece, a line headed by the entry shows the natural chain unless it says otherwise.
UniProt Q9QUQ5: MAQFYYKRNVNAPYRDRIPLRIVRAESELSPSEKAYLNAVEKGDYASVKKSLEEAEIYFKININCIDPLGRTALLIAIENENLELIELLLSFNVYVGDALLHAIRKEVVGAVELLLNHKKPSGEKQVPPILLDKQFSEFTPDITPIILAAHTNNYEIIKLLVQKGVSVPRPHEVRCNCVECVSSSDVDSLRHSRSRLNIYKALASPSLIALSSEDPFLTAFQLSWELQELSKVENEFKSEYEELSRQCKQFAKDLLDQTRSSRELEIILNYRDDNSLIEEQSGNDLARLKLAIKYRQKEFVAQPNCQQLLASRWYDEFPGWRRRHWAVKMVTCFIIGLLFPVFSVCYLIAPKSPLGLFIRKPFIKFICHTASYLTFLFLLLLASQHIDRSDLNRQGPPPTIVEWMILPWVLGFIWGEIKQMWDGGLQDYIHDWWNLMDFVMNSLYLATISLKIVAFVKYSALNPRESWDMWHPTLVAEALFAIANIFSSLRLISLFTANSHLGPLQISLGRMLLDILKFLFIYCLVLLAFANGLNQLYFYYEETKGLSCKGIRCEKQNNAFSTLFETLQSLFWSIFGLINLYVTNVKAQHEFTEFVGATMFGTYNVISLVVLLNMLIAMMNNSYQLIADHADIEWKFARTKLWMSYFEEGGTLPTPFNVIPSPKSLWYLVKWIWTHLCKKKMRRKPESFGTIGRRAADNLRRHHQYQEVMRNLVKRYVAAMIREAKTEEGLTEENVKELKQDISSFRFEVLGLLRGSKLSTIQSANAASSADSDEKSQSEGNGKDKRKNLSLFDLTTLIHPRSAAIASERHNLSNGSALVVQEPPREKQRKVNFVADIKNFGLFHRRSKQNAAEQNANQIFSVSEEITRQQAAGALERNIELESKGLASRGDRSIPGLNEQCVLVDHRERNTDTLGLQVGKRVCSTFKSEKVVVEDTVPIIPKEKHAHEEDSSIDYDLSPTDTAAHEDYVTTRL

By inhibition is commonly meant the relative decrease from the control value, in per cent.

The list shows a part of the results, in another mix than the full data. Activity calls are given as the source filed them.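 Rule for the calls: active = compounds whose fluorescence signal differed from control wells by over 3 SD, either direction, in both duplicate plates; inactive = the rest.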

For this test, the target named is Short transient receptor potential channel 4 (Mus musculus) (UniProt Q9QUQ5). The test is described as follows: DAMGO-gated TRPC4 membrane potential modulation – cell-based, second specificity screen, HEK293 TRPC4/mu-opioid, selectivity assay for TRPC6 inhibitor project, confirmation (AID 2776). Conditions: HEK293 TRPC4/MOR, membrane potential dye fluorescence, at 10 µM, channel activated by saturating DAMGO dose; hits give high values.
`O=[N+]([O-])c1ccc(O)c(/C=N/Nc2ccc([N+](=O)[O-])cc2[N+](=O)[O-])c1`: the inhibition is active: 66%.

In the case of `CN1CCCC(OC(=O)C(c2ccccc2)c2ccccc2)C1` (stereo not drawn), the outcome was inactive. For the compound `CCC1=CC2Cc3nc4ccc(Cl)cc4c(N)c3C(C1)C2` (stereo not drawn), the inhibition is active: 22.5%.
